Experimental data taken from patent publication US20100112602A1, “Protein-Protein Interaction Biosensors and Methods of Use Thereof” (priority 2006, published 2010).
Entries after “also recorded” stand apart in the source; their conditions may differ.

By UniProt entry, the sequences of proteins in these tests, tags left out. Chains listed by the source or under a name are the forms on record and can include a tag or linker.
UniProt Q00987, with tags, fused parts or gaps: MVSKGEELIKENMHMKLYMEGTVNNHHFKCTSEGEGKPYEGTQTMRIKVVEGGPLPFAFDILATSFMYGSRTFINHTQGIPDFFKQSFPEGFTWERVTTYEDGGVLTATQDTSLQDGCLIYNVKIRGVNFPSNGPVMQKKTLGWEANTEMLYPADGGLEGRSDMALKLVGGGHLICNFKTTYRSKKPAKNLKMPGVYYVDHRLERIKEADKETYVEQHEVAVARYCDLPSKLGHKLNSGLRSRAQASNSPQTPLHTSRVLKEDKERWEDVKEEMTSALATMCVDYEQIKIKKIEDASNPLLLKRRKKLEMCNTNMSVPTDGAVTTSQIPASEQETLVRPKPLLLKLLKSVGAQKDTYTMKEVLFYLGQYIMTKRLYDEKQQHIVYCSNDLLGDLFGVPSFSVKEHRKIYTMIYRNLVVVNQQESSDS

Molecular target: T1, p53:HDM2 interaction (Homo sapiens, UniProt Q00987)
T1 construct: expressed in transfected cells; host or cells: U2OS (human tumor cells), transient double transfection by Amaxa nucleofection
Experiment: p53:HDM2 protein-protein interaction biosensor high content screening assay in U2OS cells
Type: cell-based

`COc1ccc(C2=N[C@@H](c3ccc(Cl)cc3)[C@@H](c3ccc(Cl)cc3)N2C(=O)N2CCNC(=O)C2)c(OC(C)C)c1` [nutlin-3] was tested, and the “intracellular redistribution of the biosensor upon treatment (disruption of p53:HDM2 interaction)” value (U2OS cells expressing two-component p53:HDM2 biosensor, nucleoli to cytoplasm, within minutes after treatment) was “redistributed predominately into the cytoplasm; also recorded: re-partitioned into the cytoplasm; also recorded: re-partitions predominately to the cytoplasm” and the “reversibility of drug-induced translocation of the biosensor” value (washout experiments) was “reversible”.
